# Measurements reported in PubChem BioAssay AID2806 (Sanford-Burnham Center for Chemical Genomics, 2010).
# This is a selection; strong and weak results do not stand in their true shares. Some salts and complexes are drawn in separate pieces, as the source files them; their charges need not balance. Calls of active or inactive are those of the source.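 Rule for the calls: active = inhibition of at least 40% at 10 µM in the primary screen; inactive = the rest.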
# System: intestinal alkaline phosphatase [Mus musculus]
# Assay: inhibitors of mouse IAP, primary screen, biochemical, luminescence, uHTS (AID 2806);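 note: plate controls were DMSO with enzyme for no effect and no enzyme wells for full effect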
# Settings: purified mouse IAP, CDP-Star luminescence, 30 min; at 10 µM; stronger effect = higher value
row,SMILES,inhibition
1,COc1ccc(OP(C)(=O)Nc2ccc(Br)cc2)cc1 (configuration not stated),inactive: -9.3%
2,CCN(CC)CC(O)COC(=O)C(O)(c1ccccc1)C1CCCCC1 (configuration not stated),inactive: -0.7%
3,CCc1ccc(OP(C)(=O)Nc2cccnc2)cc1 (configuration not stated),inactive: -6.8%
4,CP(=O)(Oc1ccccc1)N1CCOC1=O (configuration not stated),inactive: 8.5%
5,O=C(OCCCN1CCCC1)C(O)(c1ccccc1)C1CCCCC1 (configuration not stated),inactive: 9.9%
6,COc1ccccc1OP(C)(=O)Nc1c(C)n(C)n(-c2ccccc2)c1=O (configuration not stated),inactive: 8.1%
7,CP(=O)(Nc1ccc(Cl)cc1)Oc1ccc(F)cc1 (configuration not stated),inactive: -3.4%
8,COc1ccccc1OP(C)(=O)Nc1ccccc1Br (configuration not stated),inactive: 3.9%
9,CC(C)(C)c1ccc(OP(C)(=O)O)cc1,inactive: 0.5%
10,CN(C)C(=O)c1c([N+](=O)[O-])cc([N+](=O)[O-])cc1[N+](=O)[O-],inactive: 4.4%
11,Nc1ccc2c(ccc3cccnc32)n1.O=[N+]([O-])c1cc([N+](=O)[O-])c(O)c([N+](=O)[O-])c1,inactive: 6%
12,CP(=O)(OC12CC3CC(CC(C3)C1)C2)OC12CC3CC(CC(C3)C1)C2,inactive: 17.6%
13,CCOC(=O)c1ccc(NP(C)(=O)Oc2ccc(Cl)cc2)cc1 (configuration not stated),inactive: -6.6%
14,Cc1cc(C)cc(OP(C)(=O)Nc2cccc(C(F)(F)F)c2)c1 (configuration not stated),inactive: 0.2%
15,COc1ccc(OP(C)(=O)Nc2ccccc2Br)cc1 (configuration not stated),inactive: -8%
16,COc1ccccc1OP(C)(=O)Nc1ccc(C)c(C)c1 (configuration not stated),inactive: -0.8%
17,Cc1nc2ccc3ccccc3c2o1.O=[N+]([O-])c1cc([N+](=O)[O-])c(O)c([N+](=O)[O-])c1,inactive: 5.2%
18,CP(=O)(Nc1ccc(Cl)cc1Cl)Oc1ccccc1 (configuration not stated),inactive: -18.7%
19,CP(=O)(OCCOc1ccccc1)OCCOc1ccccc1,inactive: -12.1%
20,COc1ccccc1OP(C)(=O)Nc1ccc(Br)cc1 (configuration not stated),inactive: -0.4%
21,CN(C)CCOC(=O)C(O)(c1ccccc1)C1CCCC1 (configuration not stated),inactive: 3.7%
22,COc1ccc(OP(C)(=O)Nc2ccccn2)cc1 (configuration not stated),inactive: -0.3%

row,SMILES,inhibition
1,Cc1c(NP(C)(=O)Oc2ccc(C(C)C)cc2)c(=O)n(-c2ccccc2)n1C (configuration not stated),inactive: 2.2%
2,O=[N+]([O-])c1cc([N+](=O)[O-])c(Nc2ccccn2)c([N+](=O)[O-])c1,inactive: 27.9%
3,CCc1ccc(OP(C)(=O)O)cc1,inactive: 1.4%
4,COc1ccccc1OP(C)(=O)Nc1ccc(C)cc1C (configuration not stated),inactive: -3%
5,CP(=O)(Nc1ccccn1)Oc1ccccc1 (configuration not stated),inactive: 5.6%
6,CC(C)c1ccc(OP(C)(=O)Nc2ccc(SC(F)(F)F)cc2)cc1 (configuration not stated),inactive: -5.6%
7,CP(=O)(Nc1ccccc1F)Oc1ccccc1 (configuration not stated),inactive: -4.5%
8,O=C(OCCN1CCN(CCOCc2ccccc2)CC1)C(O)(c1ccccc1)c1ccccc1,inactive: 7.8%
9,O=C(OC1CN2CCC1CC2)c1ccc([N+](=O)[O-])cc1 (configuration not stated),inactive: -10.7%
10,COc1ccc2c(c1O)-c1c(O)c(OC)cc3c1[C@H](C2)[N+](C)(C)CC3.O=[N+]([O-])c1cc([N+](=O)[O-])c([O-])c([N+](=O)[O-])c1[O-],inactive: 6.5%
11,COc1ccc(OP(C)(=O)Nc2ccc(SC(F)(F)F)cc2)cc1 (configuration not stated),inactive: 6.3%
12,CCOC(=O)c1ccc(NP(C)(=O)Oc2ccc(F)cc2)cc1 (configuration not stated),inactive: 2.9%
13,CCN(CC)CCCOC(=O)C(O)(c1ccccc1)C1CCCCC1 (configuration not stated),inactive: 4.5%
14,O=[N+]([O-])c1cc([N+](=O)[O-])c(OC2CCCCC2O)c([N+](=O)[O-])c1 (configuration not stated),inactive: 4.5%
15,CCCCCOc1ccc(NP(C)(=O)Oc2ccc(Cl)cc2Cl)cc1 (configuration not stated),inactive: 3.9%
16,CP(=O)(Nc1ccccc1)Oc1ccc(F)cc1 (configuration not stated),inactive: 3.5%
17,COc1ccc(OP(C)(=O)Nc2cccc(Br)c2)cc1 (configuration not stated),inactive: 3.9%
18,COc1ccc(NP(C)(=O)Oc2ccccc2OC)cc1 (configuration not stated),inactive: 8.9%
19,CN(C)CCOC(=O)C(O)(c1ccccc1)C1CCCCC1 (configuration not stated),inactive: -14.4%
20,O=[N+]([O-])c1cc([N+](=O)[O-])c(NCC2CCS(=O)(=O)C2)c([N+](=O)[O-])c1 (configuration not stated),inactive: 11.2%
21,CP(=O)(Nc1ccc(SC(F)(F)F)cc1)Oc1ccc(F)cc1 (configuration not stated),inactive: 15%
22,CCOP(C)(=S)SCC(=O)NC(C)(CC)C(=O)O (configuration not stated),inactive: 2.8%

row,SMILES,inhibition
1,CP(=O)(Nc1ccc2c(c1)OCCO2)Oc1ccccc1 (configuration not stated),inactive: 4.2%
2,Cc1ccccc1NP(C)(=O)Nc1ccccc1C,inactive: -0.4%
3,O=[N+]([O-])c1cc([N+](=O)[O-])c(-n2nnc3ccccc32)c([N+](=O)[O-])c1,inactive: -0.7%
4,O=[N+]([O-])c1cc([N+](=O)[O-])c(-c2cnn(-c3ccccc3)c2)c([N+](=O)[O-])c1,inactive: 2%
5,Cc1nc2ccc3ccccc3c2s1.O=[N+]([O-])c1cc([N+](=O)[O-])c(O)c([N+](=O)[O-])c1,inactive: -8.7%
6,CCOC(=O)C(CC)C1=NC(C)(C)Cc2ccccc21.O=[N+]([O-])c1cc([N+](=O)[O-])c(O)c([N+](=O)[O-])c1 (configuration not stated),inactive: 5.1%
7,CC1=C2N=C(C=C3N=C(C(C)=C4[N-][C@@](C)([C@@H]5N=C1[C@](C)(CCC(=O)NC[C@@H](C)OP(=O)([O-])O[C@H]1[C@@H](O)[C@@H](n6cnc7cc(C)c(C)cc76)O[C@@H]1CO)[C@H]5CC(N)=O)[C@@](C)(CC(N)=O)[C@@H]4CCC(N)=O)[C@@](C)(CC(N)=O)[C@@H]3CCC(N)=O)C(C)(C)[C@@H]2CCC(N)=O.[C-]#N.[Co+3],inactive: 18.1%
8,O=[N+]([O-])c1cc([N+](=O)[O-])c(Nc2nnnn2CCO)c([N+](=O)[O-])c1,inactive: 18.6%
9,COc1ccccc1OP(C)(=O)Nc1c(C)cccc1C (configuration not stated),inactive: 3.8%
10,CN1CCCCC1COC(=O)C1(O)c2ccccc2CCc2ccccc21 (configuration not stated),inactive: -2.9%
11,CCCOc1ccc(NP(C)(=O)Oc2ccc(Cl)cc2)cc1 (configuration not stated),inactive: -3%
12,CP(=O)(Nc1ccc(SC(F)(F)F)cc1)Oc1ccccc1 (configuration not stated),inactive: -3%
13,O=C(O)c1cccc(Nc2c([N+](=O)[O-])cc([N+](=O)[O-])cc2[N+](=O)[O-])c1,inactive: 1.1%
14,CC1=NCCc2c1[nH]c1ccccc21.O=[N+]([O-])c1cc([N+](=O)[O-])c(O)c([N+](=O)[O-])c1,inactive: 14.9%
15,COc1ccccc1OP(C)(=O)Nc1cccc(Br)c1 (configuration not stated),inactive: 4.8%
16,Cc1cc(C)cc(OP(C)(=O)Nc2ccc(C)cc2C)c1 (configuration not stated),inactive: -6.6%
17,CCOC(=O)c1ccc(NP(C)(=O)Oc2cc(C)cc(C)c2)cc1 (configuration not stated),inactive: 18.5%
18,Cc1cc(C)cc(OP(C)(=O)Nc2ccccn2)c1 (configuration not stated),inactive: 8.7%
19,CP(=O)(Nc1cccc(Br)c1)Oc1ccccc1 (configuration not stated),inactive: -20.2%
20,Cc1ccc(C)c(NP(C)(=O)Oc2ccccc2)c1 (configuration not stated),inactive: 3.5%
21,CCN(CC)CCCOC(=O)C(O)(c1ccccc1)c1ccccc1,inactive: 4%
22,O=[N+]([O-])c1cc([N+](=O)[O-])c(Nc2cccnc2)c([N+](=O)[O-])c1,inactive: 32%

row,SMILES,inhibition
1,Cc1cccc(C)c1OP(C)(N)=O (configuration not stated),inactive: 3.1%
2,CC(C)(C)c1ccc(OP(C)(=O)Nc2ccc(SC(F)(F)F)cc2)cc1 (configuration not stated),inactive: -5.3%
3,CCOC(=O)c1ccc(NP(C)(=O)Oc2ccccc2)cc1 (configuration not stated),inactive: 2.9%
4,Cc1ccc(NP(C)(=O)Oc2ccccc2)c(C)c1 (configuration not stated),inactive: -3.9%
5,COc1ccccc1OP(C)(=O)Nc1ccc(C)cc1 (configuration not stated),inactive: 5.4%
6,COc1ccc(OP(C)(=O)Nc2cccc(F)c2)cc1 (configuration not stated),inactive: 3.5%
7,COc1ccccc1OP(C)(=O)Nc1cc(Cl)ccc1C (configuration not stated),inactive: 8.7%
8,Cc1cc(C)cc(OP(C)(N)=O)c1 (configuration not stated),inactive: -13.5%
9,CP(=S)(Nn1cnnc1)Oc1ccccc1 (configuration not stated),inactive: -4.6%
10,COc1ccccc1OP(C)(=O)Nc1ccccc1 (configuration not stated),inactive: -11%
11,CP(=O)(Nc1ccccc1Br)Oc1ccccc1 (configuration not stated),inactive: -2%
12,CP(=O)(Oc1ccccc1)OC(c1ccccc1)C(F)(F)F (configuration not stated),inactive: 6%
13,Cc1cccc(C)c1OP(C)(=O)Nc1ccc(SC(F)(F)F)cc1 (configuration not stated),inactive: -16.4%
14,CP(=O)(Nc1ccc(SC(F)(F)F)cc1)Oc1ccc(Cl)cc1 (configuration not stated),inactive: 0.8%
15,Cc1cc(C)cc(OP(C)(=O)Nc2ccc(SC(F)(F)F)cc2)c1 (configuration not stated),inactive: 4.5%
16,CP(=O)(NC(=O)Nc1ccccc1)Oc1ccccc1 (configuration not stated),inactive: -8.3%
17,CCc1ccc(OP(C)(=O)N2CCN(c3ccc([N+](=O)[O-])cc3)CC2)cc1 (configuration not stated),inactive: 4.6%
18,CCOP(C)(=S)SCC(=O)NC(C)C(=O)O (configuration not stated),inactive: 2.6%
19,CCOC(=O)c1ccc(NP(C)(=O)Oc2ccc(OC)cc2)cc1 (configuration not stated),inactive: 5.3%
20,O=[N+]([O-])c1cc([N+](=O)[O-])c(O)c([N+](=O)[O-])c1.c1ccc(Oc2ccncc2)cc1,inactive: -15.4%
21,CP(=O)(Nc1ccccn1)Oc1ccc(Cl)cc1 (configuration not stated),inactive: -2.2%
